Measured values from PMC8895762 (BMC Complementary Medicine and Therapies, 2022).

Test system: RAW 264.7 macrophages
Experiment: CCK-8 cell viability assay
Assay type: cell-based, Murine
Settings: 40 μM, 24 h, mean ± SD, n = 3
Procedure: Murine RAW 264.7 macrophages were purchased from the American Tissue Culture Collection (Manassas, USA). These cells were incubated in DMEM supplemented with 10% FBS, 100 U/mL penicillin and 100 U/mL streptomycin in humidified 5% carbon dioxide (CO2) at 37 °C [16, 17].
The effects of 19 constituents on the viability of RAW 264.7 macrophages were assessed by CCK-8 assay. Prior to treatment, RAW 264.7 macrophages (5 × 10^3 cells/well) were seeded into 96-well plates and incubated for 24 h. All cultured cells were treated with or without 19 compounds at a concentration of 40 μM at 37 °C for 24 h. After incubation, 10 μL of CCK-8 solution was added to each well and incubated at 37 °C. After 2 h, the absorbance of each well was measured at 450 nm in a microplate reader. Cell viability was calculated using the following formular:
Cell viability (%) = Asample/Acontrol × 100, where Asample and Acontrol are the absorbance of cells treated with the compound and untreated cells, respectively. Moreover, the latter is expressed as 100% cell viability.

kaempferol-3-O-rutinoside [Compound 11]
Cell viability (%): 90.87 ± 5.45%
